Experimental data reported in PubChem BioAssay AID1259313 (Sanford-Burnham Center for Chemical Genomics, 2017).
Only a part is listed here, and it is no random draw. Activity calls are given as the source filed them.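 The calls were made as follows: active = melting temperature shift of at least 10% of the positive control shift, at one fixed dose; inactive = the rest.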

System: Glutamate receptor ionotropic, NMDA 3A (GRIN3A) ligand-binding domain
Assay: NR3A LBD thermal stabilization by compounds – biophysical, differential scanning fluorimetry, uHTS, primary screen (AID 1259313)
Conditions: at 25 µM, stronger effect = higher value, 0% = protein alone, 100% = glycine-bound protein

Structure (SMILES) | Tm shift relative to glycine control
CCC(=O)N(c1ccccc1)C1(COC)CCN(CCn2nnn(CC)c2=O)CC1 | inactive: 0.88%
CCC(=O)N(c1ccccc1)C1(COC)CCN(CCc2cccs2)CC1 | inactive: -0.4%
